The values below come from article PMC5923235 (2018).

The target in assay [1] is T1, NTS1 T186C^4.42 (TM4) in the Cys-depleted background of rat neurotensin receptor 1 (rat, UniProt P20789, C172S^3.55 | C278S^IC3 | C332S^6.59 | C386S^C-term | C388S^C-term | T186C^4.42, Cys186 labelled with Cy3 or Cy5 (smFRET), Alexa Fluor 488 or Alexa Fluor 555 (ensemble FRET), Alexa Fluor 488 (test with Gαi1), MTSL spin label (DEER)). Put plainly: MST; 5 uM NT8-13 + 0.5 mM GTPγS, detergent.

Assay [2] addresses T2, NTS1 V307C^6.34 (TM6) in the Cys-depleted background of rat neurotensin receptor 1 (rat, UniProt P20789, C172S^3.55 | C278S^IC3 | C332S^6.59 | C386S^C-term | C388S^C-term | V307C^6.34, Cys307 labelled with Alexa Fluor 488 or Alexa Fluor 555 (ensemble FRET), MTSL spin label (DEER)). Put plainly: MST; 5 uM NT8-13 + 0.5 mM GTPγS, detergent.
The target in assay [3] is T1, NTS1 T186C^4.42 (TM4) in the …. Put plainly: MST; 5 uM NT8-13, detergent.
Assay [4] has as its target T2, NTS1 V307C^6.34 (TM6) in the …. Put plainly: MST; 5 uM NT8-13, detergent.
The target of assay [5] is T3, wild-type NTS1 (rat neurotensin receptor 1) (rat, UniProt P20789 43-424).
T3 chain: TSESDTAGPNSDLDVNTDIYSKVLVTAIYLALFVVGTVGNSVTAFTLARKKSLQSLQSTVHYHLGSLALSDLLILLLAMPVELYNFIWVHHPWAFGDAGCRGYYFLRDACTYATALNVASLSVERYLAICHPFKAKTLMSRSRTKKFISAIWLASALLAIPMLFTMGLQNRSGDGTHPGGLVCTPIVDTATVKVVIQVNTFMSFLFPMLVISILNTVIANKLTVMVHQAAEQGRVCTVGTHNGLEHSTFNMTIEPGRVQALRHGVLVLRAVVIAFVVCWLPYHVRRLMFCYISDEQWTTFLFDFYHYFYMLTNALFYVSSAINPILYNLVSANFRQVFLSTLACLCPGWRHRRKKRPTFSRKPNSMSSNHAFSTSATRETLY
Put plainly: MST; 5 uM NT8-13, detergent.

Usually Kd stands for the equilibrium constant for the complex coming apart.

B1: Gαi1 (natural protein)
chain: MGCTLSAEDKAAVERSKMIDRNLREDGEKAAREVKLLLLGAGESGKSTIVKQMKIIHEAGYSEEECKQYKAVVYSNTIQSIIAIIRAMGRLKIDFGDSARADDARQLFVLAGAAEEGFMTAELAGVIKRLWKDSGVQACFNRSREYQLNDSAAYYLNDLDRIAQPNYIPTQQDVLRTRVKTTGIVETHFTFKDLHFKMFDVGGQRSERKKWIHCFEGVTAIIFCVALSDYDLVLAEDEEMNRMHESMKLFDSICNNKWFTDTSIILFLNKKDLFEEKIKKSPLTICYPEYAGSNTYEEAAAYIQCQFEDLNKRKDTKEIYTHFTCATDTKNVQFVFDAVTDVIIKNNLKDCGLF
B1: the Kd in assay [1] is 60000 nM; in assay [2], 19000 nM; in assay [3], 1000 nM; in assay [4] it was 1000 nM; in assay [5], 500 nM.
